# Curated experimental data: properties

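The numbers are reported measurements, compiled and curated for the OPERA QSAR suite. The files give a single number for a compound and property, which may rest on several reports. Conditions of the individual experiments are not part of the data. A value may pool stereoisomers or salt forms, and the file does not say which form was measured. Unmarked limits or estimates from the upstream databases cannot be ruled out.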

The melting point is given in degrees Celsius.
Boiling points are in °C, nominally at 760 mmHg.
logP is the log10 of the octanol-water partition coefficient; higher is more lipophilic.
Solubility in water is on a log10 molar scale (set defined at 25 °C).
Vapor pressure is log10 of mmHg; the set covers 15 to 30 °C, mostly 20 to 25 °C.
The unbound fraction in human plasma runs from 0 (all bound) to 1 (all free).
Intrinsic clearance (human, µL/min per 10^6 hepatocytes): higher is faster turnover, and 0 stands for none detected.
"–" marks a cell with nothing listed here.

| melting point (°C) | BP (°C) | logP (octanol/water) | log S (log10 mol/L) | log vapor pressure (log10 mmHg) | plasma fu | hepatic Clint (µL/min/10^6 cells) | structure (SMILES) | name |
|---|---|---|---|---|---|---|---|---|
| 257 | – | – | -7.418 | – | – | – | CC(=O)C(N=Nc1ccc(C)cc1[N+](=O)[O-])C(=O)Nc1ccccc1 (stereo not drawn) | C.I. Pigment Yellow 1 |
| 39.5 | 354 | 1.85 | -3.899 | -5.558 | – | – | CCCCCCCCCCCC1=NCCN1CCO | 1H-Imidazole-1-ethanol, 4,5-dihydro-2-undecyl- |
| – | – | – | -0.888 | – | 0.67 | – | Cc1c(O)c(=O)ccn1C | Deferiprone |
| 66 | – | 4.7 | – | -5.835 | – | – | C=C[C@H]1CC[C@H]([C@H]2CC[C@H](c3ccc(C)cc3)CC2)CC1 | (Trans(Trans))-4'-vinyl-4-(4-methylphenyl)bicyclohexyl |
| – | – | 5.58 | – | -2.782 | – | – | CCCCCCC(=O)OC(=O)CCCCCC | Heptanoic acid, 1,1'-anhydride |
| -63 | – | 3.9 | -3.775 | -2.682 | – | – | CC(C(=O)c1ccc(Cl)cc1)C1CC1 (stereo not drawn) | 1-(4-Chlorophenyl)-2-cyclopropylpropan-1-one |
| 153.9 | – | 4.2 | -5.429 | -6.259 | – | – | O=[N+]([O-])c1cc(Cl)c(N=Nc2ccc(N(CCO)CCO)cc2Cl)c(Br)c1 | – |
| – | – | 5.67 | – | -2.011 | – | – | C1CCC(COCC2CCCCC2)CC1 | – |
| – | – | – | – | – | 0.313 | 864 | CCCCOC(=O)c1ccccc1 | Butyl benzoate |
| – | – | 0.6 | -4.041 | -9.408 | – | – | O=C1c2ccccc2C(=O)N1C[C@H](O)CNc1ccc(N2CCOCC2=O)cc1 | – |
| -6 | – | – | -5.973 | -5.712 | – | – | CC(C)CCCC(C)CCCC(C)CCCC(C)(O)C(O)CO (stereo not drawn) | 3,7,11,15-Tetramethylhexadecane-1,2,3-triol |
| – | – | 2.9 | -2.213 | -9.034 | – | – | C[C@H](N[C@@H]1CCc2[nH]c3ccccc3c2C1)c1ccccc1.Cl | – |
| – | – | 0 | – | -7.049 | – | – | CCN(CC)CCOCc1ccc(C)cc1.Cl | N,N-Diethyl-2-(4-methylbenzyloxy) ethylamine hydrochloride |
| – | – | 3.4 | – | – | 0.008307 | 58.72 | Cc1ccc(C)c(OCCCC(C)(C)C(=O)O)c1 | Gemfibrozil |
| – | – | 0.73 | – | -1.363 | – | – | NCCCNC1CCCCC1 | N-(3-Aminopropyl)cyclohexylamine |
| – | – | 6.6 | -6.623 | – | – | – | CN(Cc1ccc(C(C)(C)C)cc1)Cc1cccc2ccccc12 | Butenafine |
| -42.5 | – | 4.5 | -3.263 | -2.824 | – | – | CCCOC(=O)C1CCCCC1C(=O)OCCC (stereo not drawn) | dipropyl cyclohexane-1,2-dicarboxylate |
| 124.5 | – | – | -7.717 | -8.282 | – | – | Cc1ccc(C2=CCC(C3CCC4(CC3)OCCO4)CC2)cc1 (stereo not drawn) | – |
| 117.6 | – | 2.4 | -4.395 | – | – | – | Cc1ccc(OCC(=O)N(Cc2cccs2)c2cc[nH]n2)cc1 | – |
| – | – | 1.6 | – | -0.559 | – | – | CC(O)C1CCCCC1 (stereo not drawn) | 1-Cyclohexylethanol |
| – | – | 1.7 | -4.128 | – | – | – | COc1ccc(-c2coc3cc(O)ccc3c2=O)cc1 | Formononetin |
| 80 | – | 5.1 | -7.44 | -10.46 | – | – | C=CC(=O)OCCCCOc1ccc(C(=O)Oc2ccc(OC(=O)c3ccc(OCCCCOC(=O)C=C)cc3)c(C)c2)cc1 | – |
| – | – | 3.8 | – | -4.18 | – | – | CCCCCCCCCCCC(=O)NCCO | Laurylethanolamide |
| -80.1 | – | 3.85 | -3.085 | -0.313 | – | – | COC1CC2CC1C1C=CCC21 (stereo not drawn) | 4,7-Methano-1H-indene, 3a,4,5,6,7,7a-hexahydro-5-methoxy- |
| 179 | – | 5 | -4.179 | – | – | – | CC(C)(C(=O)O)c1ccc(C#CCCN2CCC(C(O)(c3ccccc3)c3ccccc3)CC2)cc1 | – |
| 298.5 | – | -1.94 | – | – | – | – | Cc1ccc(C(=O)Nc2ccc(S(=O)(=O)[O-])cc2)cc1[N+](=O)[O-].[Na+] | Sodium 4-(4-methyl-3-nitrobenzoylamino)benzenesulphonate |
| -78 | – | 5.1 | -4.024 | 0.364 | – | – | CO[Si](CC(C)C)(OC)C(C)C | Silane, dimethoxy(1-methylethyl)(2-methylpropyl)- |
| 56 | – | – | – | -2.35 | – | – | CCOC(=O)[C@@H](N)[C@@H](C)O | L-Threonine, ethyl ester |
| – | – | 4.3 | -3.718 | -1.016 | – | – | CC(C)[C@H]1CC=C(CCC=O)CC1 | 3-[(4R)-4-(Propan-2-yl)cyclohex-1-en-1-yl]propanal |
| – | – | 0.325 | -1.729 | – | – | – | Cc1cc(S(=O)(=O)[O-])ccc1N.[Na+] | Benzenesulfonic acid, 4-amino-3-methyl-, monosodium salt |
| – | – | 3.036 | -2.279 | -2.824 | – | – | CC1CCC(C(C)C)C2(C1)OCC(CO)O2 (stereo not drawn) | – |
| 227.7 | – | – | – | -12.56 | – | – | COc1cc(NS(=O)(=O)c2ccc(C)cc2)c2c(c1N)C(=O)c1ccccc1C2=O | C.I. Disperse Red 86 |
| 92.65 | – | 1.7 | -2.855 | -7.878 | – | – | CCOCCOC(=O)/C(C#N)=C1\C=C(NCCCOC)CCC1 | – |

The first 2 entries again:

structure (SMILES)	name	melting point (°C)	BP (°C)	logP (octanol/water)	log S (log10 mol/L)	log vapor pressure (log10 mmHg)	plasma fu	hepatic Clint (µL/min/10^6 cells)
CC(=O)C(N=Nc1ccc(C)cc1[N+](=O)[O-])C(=O)Nc1ccccc1 (stereo not drawn)	C.I. Pigment Yellow 1	257	–	–	-7.418	–	–	–
CCCCCCCCCCCC1=NCCN1CCO	1H-Imidazole-1-ethanol, 4,5-dihydro-2-undecyl-	39.5	354	1.85	-3.899	-5.558	–	–

From the experimental data distributed with OPERA 2.9.